Results reported in patent publication US6162823A, “LTA4 hydrolase inhibitors” (G.D. Searle & Co., priority 1997, dated 2000).

Target: T1, recombinant human LTA4 hydrolase (rhLTAH) (Homo sapiens, UniProt P09960)
T1 construct: made in house; host or cells: Spodoptera frugiperda Sf-9 cells (baculovirus)
T1 sequence (P09960 1-611): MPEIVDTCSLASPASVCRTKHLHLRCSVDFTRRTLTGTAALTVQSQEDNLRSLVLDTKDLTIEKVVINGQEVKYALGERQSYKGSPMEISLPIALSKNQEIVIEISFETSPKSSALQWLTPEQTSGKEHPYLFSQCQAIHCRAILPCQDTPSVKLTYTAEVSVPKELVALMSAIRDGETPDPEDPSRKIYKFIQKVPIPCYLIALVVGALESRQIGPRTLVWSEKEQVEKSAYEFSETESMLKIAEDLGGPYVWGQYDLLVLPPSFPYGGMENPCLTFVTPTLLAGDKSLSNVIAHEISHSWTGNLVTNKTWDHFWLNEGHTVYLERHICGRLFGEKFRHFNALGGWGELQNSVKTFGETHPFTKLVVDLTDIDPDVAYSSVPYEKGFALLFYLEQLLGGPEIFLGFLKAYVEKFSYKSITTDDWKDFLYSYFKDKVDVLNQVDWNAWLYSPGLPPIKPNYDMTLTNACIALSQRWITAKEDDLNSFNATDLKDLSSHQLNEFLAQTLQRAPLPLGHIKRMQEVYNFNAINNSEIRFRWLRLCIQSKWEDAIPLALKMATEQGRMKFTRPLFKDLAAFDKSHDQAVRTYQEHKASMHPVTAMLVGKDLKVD
Experiment: Recombinant Human LTA Hydrolase Assay for LTA Hydrolase Inhibitor Activity
Type: biochemical
Settings: 10 min preincubation with 250 ng enzyme, LTA4 substrate, room temperature, pH 7.4

**Q.** `CCN(CCCOc1ccc(Cc2ccsc2)cc1)CCC(=O)NS(C)(=O)=O` [Example 15, 3-[Ethyl[3-[4-[(3-thienyl)methyl]phenoxy]propyl]-amino]-N-(methylsulfonyl)propanamide monohydrochloride] was tested. Which IC50 did it give?
**A.** The IC50 was 0.43 µM.

Where a name gives a salt, the structure may show the parent alone.
